Measurements as given in patent US7922998B2, “Gastrin releasing peptide compounds” (Bracco Imaging S.p.A., priority 2003, dated 2011).

Protein sequences, listed by entry. Tags and fused reporters are not part of them. Lines headed by an entry give the natural chain unless they say otherwise; changes in a name come on top.
UniProt P30550: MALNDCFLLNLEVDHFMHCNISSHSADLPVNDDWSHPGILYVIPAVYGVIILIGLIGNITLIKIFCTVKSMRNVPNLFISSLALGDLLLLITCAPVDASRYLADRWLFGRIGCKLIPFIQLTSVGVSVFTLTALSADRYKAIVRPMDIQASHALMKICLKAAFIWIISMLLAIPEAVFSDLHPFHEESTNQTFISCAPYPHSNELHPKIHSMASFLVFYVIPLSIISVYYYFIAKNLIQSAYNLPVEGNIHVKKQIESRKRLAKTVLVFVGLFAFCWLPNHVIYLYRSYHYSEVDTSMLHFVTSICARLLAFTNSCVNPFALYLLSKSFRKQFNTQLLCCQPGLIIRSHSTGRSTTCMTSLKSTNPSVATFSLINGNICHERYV

Tests used:
GRP-R [1] = target: T1, GRP-R (Homo sapiens, UniProt P30550); experiment: In vitro competition binding assay with 125I-BBN for GRP-R in PC3 cells (Example XLIII; also the PC3 part of Example LX)
T1 construct: host or cells: PC3 human prostate cancer cells, intact and plated

GRP-R [2] = target: T1, GRP-R; experiment: Competition assay of modified BBN analogs with 125I-BBN for GRP-R in PC3 cells (Example LXI); assay type: binding
[3] = system: PC3 tumor-bearing nude mice
[4] = system: human PC-3 nude mouse model; assay type: in vivo; settings: 177Lu-labeled compound, i.v. tail vein, n=4
[5] = concentration of compounds to inhibit 50% binding of iodinated bombesin to a GRP receptor on cells, read-out: IC50
[6] = Table 1, concentration of compound to inhibit 50% binding of iodinated bombesin to a GRP receptor on cells, unlabeled ligand, unit inferred, read-out: IC50
[7] = Table 13, competition with 125I-BBN for GRP-R in PC3 cells, read-out: IC50
[8] = 177Lu-labeled, 200 μCi/kg i.v., 1 hr
[9] = 177Lu-labeled, 200 μCi/kg i.v., 24 hr
[10] = Table 2, concentration of compound to inhibit 50% binding of iodinated bombesin to a GRP receptor on cells, unit inferred, read-out: IC50
[11] = Table 10, competition with 125I-BBN, PC3 cells, read-out: IC50 (nM) 125I-BBN/PC3

In the case of “(1R)-1-(Bis{2-[bis(carboxymethyl)amino]ethyl}amino)propane-3-carboxylic acid-1-carboxyl-glycyl-4-aminobenzoyl-L-glutaminyl-L-tryptophyl-L-alanyl-L-valyl-glycyl-L-histidyl-L-leucyl-L-methioninamide [Compound L201]”, the IC50 (GRP-R [1]; [5]) is reported as 36 nM.
In the case of “N,N-dimethylglycine-Ser-Cys(Acm)-Gly-8-amino-3,6-dioxaoctanoic acid-2,3-diaminopropionic acid-Gly-BBN(7-14) [Compound L24]”, the IC50 (GRP-R [1]; [6]) is reported as 38 nM.
“N,N-dimethylglycine-Ser-Cys(Acm)-Gly-N-1-piperazineacetic acid-2,3-diaminopropionic acid BBN(7-14) [Compound L37]” showed an IC50 (GRP-R [1]; [6]) of 23 nM.
“N,N-dimethylglycine-Ser-Cys(Acm)-Gly-N-4-aminoethyl-N-1-piperazineacetic acid-Lys-BBN(7-14) [Compound L32]” showed an IC50 (GRP-R [1]; [6]) of 34 nM.
With “N,N-dimethylglycine-Ser-Cys(Acm)-Gly-8-amino-3,6-dioxaoctanoic acid-2,3-diaminopropionic acid-BBN(7-14) [Compound L16]” the IC50 (GRP-R [1]; [6]) was 17 nM.
Work on “N,N-dimethylglycine-Ser-Cys(Acm)-Gly-N-1-piperazineacetic acid-Arg-BBN(7-14) [Compound L35]” yielded an IC50 (GRP-R [1]; [6]) of 26 nM.
“N-[(3β,5β,12α)-3-[[[4,7,10-Tris(carboxymethyl)-1,4,7,10-tetraazacyclododec-1-yl]acetyl]amino]-glycyl-4-aminobenzoyl-D-phenylalanyl-L-glutaminyl-L-tryptophyl-L-alanyl-L-valyl-glycyl-L-histidyl-L-leucyl-L-methioninamide [Compound L214]” was tested, and the IC50 (GRP-R [2]; [7]) was 18 nM and the IC50 (GRP-R [2]; Table 16, unit not in the table, nM per b770/Table 13, read-out: IC50 PC3/GRP-R) was 18 nM.
“N-[4-[[[[[4,7,10-Tris(carboxymethyl)-1,4,7,10-tetraazacyclododec-1-yl]acetyl]amino]acetyl]amino]benzoyl]-L-glutaminyl-L-tryptophyl-L-alanyl-L-valyl-glycyl-L-histidyl-L-leucyl-L-methioninamide [Compound L70]” was tested, and the “Blood, 1 hr” value [3, 8] was 0.33 % ID/g, the “Kidneys, 1 hr” value [3, 8] was 6.01 % ID/g and the “Liver, 1 hr” value [3, 8] was 0.77 % ID/g. The “Pancreas, 1 hr” value [3, 8] was 42.34 % ID/g, the “Tumor, 1 hr” value [3, 8] was 6.42 % ID/g and the “Blood, 24 hr” value [3, 9] was 0.03 % ID/g. The “Kidneys, 24 hr” value [3, 9] was 2.31 % ID/g, the “Liver, 24 hr” value [3, 9] was 0.10 % ID/g and the “Pancreas, 24 hr” value [3, 9] was 40.24 % ID/g. The “Tumor, 24 hr” value [3, 9] was 3.50 % ID/g, the “uptake in the mouse pancreas compared with control” value ([3]; in words) was “much higher” and the “uptake in the tumor compared with control” value ([3]; in words, 1 and 24 h) was “much higher”. The “Blood 1 h % ID” value ([4]; blood pool, 1 h post injection) was 1.23 ± 0.58 % ID, the “Blood 24 h % ID” value ([4]; blood pool, 24 h post injection) was 0.02 ± 0.00 % ID and the “Blood 7 d % ID” value ([4]; blood pool, 7 d post injection) was 0.00 ± 0.00 % ID. For the same substance, the “Carcass 7 d % ID/g” value ([4]; carcass, 7 d post injection) was 0.17 ± 0.01 % ID/g, the “Femur 7 d % ID/g” value ([4]; femur, 7 d post injection) was 0.06 ± 0.03 % ID/g and the “Tumor 1 h % ID/g” value ([4]; tumor, 1 h post injection) was 5.86 ± 1.91 % ID/g. For the same substance, the “Tumor 24 h % ID/g” value ([4]; tumor, 24 h post injection) was 1.82 ± 0.06 % ID/g, the “Tumor 7 d % LD/g” value ([4]; tumor, 7 d post injection) was 0.34 ± 0.16 % LD/g and the “Urine/Blad 1 h % ID” value ([4]; urine combined with bladder, 1 h post injection) was 43.4 ± 4.3 % ID.
Substance “N-[(3β,5β,12α)-3-[[[4,7,10-Tris(carboxymethyl)-1,4,7,10-tetraazacyclododec-1-yl]acetyl]amino]-glycyl-4-aminobenzoyl-L-glutaminyl-L-tryptophyl-L-alanyl-glycyl-L-histidyl-L-phenylalanyl-L-leucinamide [Compound L224]” has an IC50 (GRP-R [2]; Table 17, nM in the table's title, read-out: IC50 PC3/GRP-R) of 52 nM.
Work on “N,N-dimethylglycine-Ser-Cys(Acm)-Gly-8-amino-3,6-dioxaoctanoic acid-2,3-diaminopropionic acid-Gly-BBN(7-14) [Compound L59]” yielded an IC50 (GRP-R [1]; [6]) of 42 nM.
“N,N-dimethylglycine-Ser-Cys(Acm)-Gly-Asp-8-amino-3,6-dioxaoctanoic acid-Gly-BBN(7-14) [Compound L19]” gave an IC50 (GRP-R [1]; [6]) greater than 50 nM.
Substance “DO3A-monoamide-8-amino-3,6-dioxaoctanoic acid-diaminopropionic acid-BBN(7-14) [Compound L78]” has an IC50 (GRP-R [1]; [6]) of 35 nM.
With “N-[4-[[4-Bis[2-[[[4,7,10-tris(carboxymethyl)-1,4,7,10-tetraazacyclododec-1-yl]acetyl]amino]ethyl]amino-1,4-dioxobutyl]amino]benzoyl]-L-glutaminyl-L-tryptophyl-L-alanyl-L-valyl-glycyl-L-histidyl-L-leucyl-L-methioninamide [Compound L244]” the IC50 (GRP-R [1]; [5]) was greater than 50 nM.
With “N,N-dimethylglycine-Ser-Cys(Acm)-Gly-N-1-piperazineacetic acid-Ser-BBN(7-14) [Compound L34]” the IC50 (GRP-R [1]; [6]) was 38 nM.
“N,N-dimethylglycine-Ser-Cys(Acm)-Gly-2,3-diaminopropionic acid-8-amino-3,6-dioxaoctanoic acid-BBN(7-14) [Compound L18]” was tested, and the IC50 (GRP-R [1]; [6]) was 7.8 nM.
“N,N-dimethylglycine-Ser-Cys(Acm)-Gly-8-amino-3,6-dioxaoctanoic acid-8-amino-3,6-dioxaoctanoic acid-Gly-BBN(7-14) [Compound L23]” gave an IC50 (GRP-R [1]; [6]) greater than 50 nM.
In the case of “N-[2-S-[[[[[12α-Hydroxy-17α-(1-methyl-3-carboxypropyl)etiocholan-3,3-carbamoylmethoxyethoxyethoxyacetyl]-amino-6-[4,7,10-tris(carboxymethyl)-1,4,7,10-tetraazacyclododec-1-yl]acetyl]amino]acetyl]amino]hexanoyl-L-glutaminyl-L-tryptophyl-L-alanyl-L-valyl-glycyl-L-histidyl-L-leucyl-L-methioninamide [Compound L66]”, the IC50 (GRP-R [1]; [10]) is reported as greater than 50 nM.
“N,N-dimethylglycine-Ser-Cys(Acm)-Gly-8-amino-3,6-dioxaoctanoic acid-Asp-Gly-BBN(7-14) [Compound L20]” gave an IC50 (GRP-R [1]; [6]) of 37 nM.
For “DO3A-monoamide-8-amino-octanoic acid-BBN (7-14) [reference compound]”, the “Kidneys, 1 hr” value [3, 8] was 7.65 % ID/g, the “Pancreas, 1 hr” value [3, 8] was 28.60 % ID/g and the “Tumor, 1 hr” value [3, 8] was 3.66 % ID/g. For the same substance, the “Kidneys, 24 hr” value [3, 9] was 1.03 % ID/g, the “Pancreas, 24 hr” value [3, 9] was 1.01 % ID/g and the “Tumor, 24 hr” value [3, 9] was 1.52 % ID/g. For the same substance, the IC50 (GRP-R [1]; competition binding curves FIGS. 14A-B, 125I-BBN, PC3 cells, 1 h at 4° C., read-out: IC50) was 5 nM.
For “Pglu-Q-Lys(DO3A-monoamide-G-4-aminobenzoic acid)-LGNQWAVGHLM-NH2 [Compound L218]”, the IC50 (GRP-R [2]; [7]) was 53 nM.
For “N-[4-[[[[4,7,10-Tris(carboxymethyl)-1,4,7,10 tetraazacyclododec-1-yl]acetyl]glycyl]amino]-L-Lysinyl-(3,6,9)-trioxaundecane-1,11-dicarboxylic acid-3,7-dideoxy-3-aminocholic acid)-L-arginyl-L-glutaminyl-L-triptophyl-L-alanyl-L-valyl-glycyl-L-histidyl-L-leucyl-L-methioninamide [Compound L65]”, the IC50 (GRP-R [1]; [10]) was greater than 50 nM.
For “N,N-dimethylglycine-Ser-Cys(Acm)-Gly-8-amino-3,6-dioxaoctanoic acid-Ser-Gly-BBN(7-14) [Compound L21]”, the IC50 (GRP-R [1]; [6]) was 46 nM.
With “N-[(3β,5β,12α)-3-[[[[[4,7,10-Tris(carboxymethyl)-1,4,7,10-tetraazacyclododec-1-yl]acetyl]amino]acetyl]amino]-[3′-amino-biphenyl-3-carboxyl]-L-glutaminyl-L-tryptophyl-L-alanyl-L-valyl-glycyl-L-histidyl-L-leucyl-L-methioninamide [Compound L207]” the IC50 (GRP-R [1]; [11]) was 3 nM and the IC50 (GRP-R [1]; [5]) was 2.5 nM.
Substance “N,N-dimethylglycine-Ser-Cys(Acm)-Gly-8-amino-3,6-dioxaoctanoic acid-Arg-Gly-BBN(7-14) [Compound L22]” has an IC50 (GRP-R [1]; [6]) of 36 nM.
Substance “N,N-dimethylglycine-Ser-Cys(Acm)-Gly-Asp-8-amino-3,6-dioxaoctanoic acid-BBN(7-14) [Compound L3]” has an IC50 (GRP-R [1]; [6]) greater than 50 nM.
“N,N-dimethylglycine-Ser-Cys(Acm)-Gly-8-amino-3,6-dioxaoctanoic acid-Lys-Gly-BBN(7-14) [Compound L25]” gave an IC50 (GRP-R [1]; [6]) of 26 nM.
With “N,N-dimethylglycine-Ser-Cys(Acm)-Gly-5-aminopentanoic acid-BBN (7-14) [RP527, reference compound]” the IC50 (GRP-R [1]; text b655, unit inferred, read-out: IC50) was 0.84 nM.
In the case of “N-[(3β,5β,12α)-3-[[[4,7,10-Tris(carboxymethyl)-1,4,7,10-tetraazacyclododec-1-yl]acetyl]amino]-glycyl-4-aminobenzoyl-L-leucyl-L-tryptophyl-L-alanyl-L-threonyl]-glycyl-L-histidyl-L-phenylalanyl-L-methioninamide [Compound L227]”, the IC50 (GRP-R [2]; [7]) is reported as 39 nM, the IC50 (GRP-R [2]; Table 14, unit not in the table, nM per b770/Tables 10 and 13, read-out: IC50 PC3/GRP-R) is reported as 28 nM and the IC50 (GRP-R [1]; [11]) is reported as 28 nM.
